Data taken from PMC3288537 (ACS Chemical Biology, 2011).

Tests used:
Format in all cases: biochemical
Details in all cases: ratio of IC50 values
PTP-SL = molecular target: T1, PTP-SL (Homo sapiens, UniProt Q15256); assay: Dose-response OMFP phosphatase assay, PTP-SL
T1 sequence (Q15256 22-657): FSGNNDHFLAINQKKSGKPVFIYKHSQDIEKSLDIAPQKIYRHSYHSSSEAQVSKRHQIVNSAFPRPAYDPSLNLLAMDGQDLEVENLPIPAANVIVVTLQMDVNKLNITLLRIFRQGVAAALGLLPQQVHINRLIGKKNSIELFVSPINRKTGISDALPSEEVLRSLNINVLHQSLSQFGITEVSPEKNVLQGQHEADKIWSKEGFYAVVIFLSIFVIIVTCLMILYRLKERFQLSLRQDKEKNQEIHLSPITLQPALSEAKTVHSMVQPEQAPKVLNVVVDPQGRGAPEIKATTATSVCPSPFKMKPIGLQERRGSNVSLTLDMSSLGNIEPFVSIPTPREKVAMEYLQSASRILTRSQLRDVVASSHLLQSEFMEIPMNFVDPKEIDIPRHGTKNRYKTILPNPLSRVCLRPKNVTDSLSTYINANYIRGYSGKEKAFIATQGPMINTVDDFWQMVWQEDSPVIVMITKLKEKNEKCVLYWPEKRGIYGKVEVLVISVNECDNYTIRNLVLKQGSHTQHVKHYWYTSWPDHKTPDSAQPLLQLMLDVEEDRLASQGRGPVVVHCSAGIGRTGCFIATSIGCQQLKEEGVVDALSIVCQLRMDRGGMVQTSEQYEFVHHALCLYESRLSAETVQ

CD45 = molecular target: T2, CD45 (Homo sapiens, UniProt P08575); assay: Dose-response OMFP phosphatase assay, CD45
T2 sequence (P08575 26-1306): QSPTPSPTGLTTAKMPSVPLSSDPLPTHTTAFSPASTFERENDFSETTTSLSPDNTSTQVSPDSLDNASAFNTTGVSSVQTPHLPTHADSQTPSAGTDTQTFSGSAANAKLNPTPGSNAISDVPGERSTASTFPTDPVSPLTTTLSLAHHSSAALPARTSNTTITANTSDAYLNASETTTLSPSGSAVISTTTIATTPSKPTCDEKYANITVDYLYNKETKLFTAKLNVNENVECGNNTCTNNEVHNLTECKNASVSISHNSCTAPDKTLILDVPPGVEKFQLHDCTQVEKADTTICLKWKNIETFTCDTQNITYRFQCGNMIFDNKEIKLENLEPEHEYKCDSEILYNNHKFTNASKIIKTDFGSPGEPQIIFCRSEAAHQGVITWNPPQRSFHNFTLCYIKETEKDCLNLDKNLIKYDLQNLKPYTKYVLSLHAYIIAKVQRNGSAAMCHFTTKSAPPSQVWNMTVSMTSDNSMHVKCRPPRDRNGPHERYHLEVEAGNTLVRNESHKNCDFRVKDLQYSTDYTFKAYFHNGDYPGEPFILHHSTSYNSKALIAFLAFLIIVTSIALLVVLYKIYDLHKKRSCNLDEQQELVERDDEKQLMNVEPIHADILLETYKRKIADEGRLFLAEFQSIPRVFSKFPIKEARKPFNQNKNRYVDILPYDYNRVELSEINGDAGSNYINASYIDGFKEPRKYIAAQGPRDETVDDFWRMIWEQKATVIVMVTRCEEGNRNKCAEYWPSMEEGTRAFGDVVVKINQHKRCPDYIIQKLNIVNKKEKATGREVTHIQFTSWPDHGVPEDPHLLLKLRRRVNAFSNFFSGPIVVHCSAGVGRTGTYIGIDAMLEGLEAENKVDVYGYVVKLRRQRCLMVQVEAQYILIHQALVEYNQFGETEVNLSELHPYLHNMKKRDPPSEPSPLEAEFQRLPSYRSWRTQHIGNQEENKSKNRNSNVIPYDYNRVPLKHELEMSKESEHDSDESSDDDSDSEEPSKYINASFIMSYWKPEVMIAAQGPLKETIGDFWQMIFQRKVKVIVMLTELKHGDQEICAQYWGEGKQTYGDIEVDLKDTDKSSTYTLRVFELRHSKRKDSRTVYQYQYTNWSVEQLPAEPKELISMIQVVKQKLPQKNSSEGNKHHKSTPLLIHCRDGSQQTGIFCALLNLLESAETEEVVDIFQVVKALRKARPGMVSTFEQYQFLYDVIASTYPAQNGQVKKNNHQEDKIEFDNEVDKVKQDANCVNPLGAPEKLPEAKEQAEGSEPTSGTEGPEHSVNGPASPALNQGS
How it was run: (§1)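 Ten-point 2-fold dilution series of test compound prepared in DMSO. Fluorescence (ex 485/em 528 nm) read in kinetic mode over 10 min; progress-curve slopes taken as activity. IC50 by nonlinear regression (sigmoidal, variable slope).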

TCPTP = molecular target: T3, TCPTP (Homo sapiens, UniProt P17706); assay: Dose-response OMFP phosphatase assay, TCPTP
T3 sequence (P17706 1-415): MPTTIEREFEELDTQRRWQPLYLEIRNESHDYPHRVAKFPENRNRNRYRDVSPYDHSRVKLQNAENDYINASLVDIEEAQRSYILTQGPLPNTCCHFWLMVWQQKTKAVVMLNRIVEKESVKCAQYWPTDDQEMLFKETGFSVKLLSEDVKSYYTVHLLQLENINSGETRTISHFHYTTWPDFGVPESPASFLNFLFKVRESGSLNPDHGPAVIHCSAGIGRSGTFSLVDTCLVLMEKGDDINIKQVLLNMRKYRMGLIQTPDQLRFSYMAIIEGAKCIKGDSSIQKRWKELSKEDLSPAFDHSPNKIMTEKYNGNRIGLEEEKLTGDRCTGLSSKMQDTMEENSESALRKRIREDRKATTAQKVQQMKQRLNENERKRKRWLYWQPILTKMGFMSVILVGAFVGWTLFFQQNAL
How it was run: as §1

MKP-3 = molecular target: T4, MKP-3 (Homo sapiens, UniProt Q16828); assay: Dose-response OMFP phosphatase assay, MKP-3
T4 sequence (Q16828 1-381): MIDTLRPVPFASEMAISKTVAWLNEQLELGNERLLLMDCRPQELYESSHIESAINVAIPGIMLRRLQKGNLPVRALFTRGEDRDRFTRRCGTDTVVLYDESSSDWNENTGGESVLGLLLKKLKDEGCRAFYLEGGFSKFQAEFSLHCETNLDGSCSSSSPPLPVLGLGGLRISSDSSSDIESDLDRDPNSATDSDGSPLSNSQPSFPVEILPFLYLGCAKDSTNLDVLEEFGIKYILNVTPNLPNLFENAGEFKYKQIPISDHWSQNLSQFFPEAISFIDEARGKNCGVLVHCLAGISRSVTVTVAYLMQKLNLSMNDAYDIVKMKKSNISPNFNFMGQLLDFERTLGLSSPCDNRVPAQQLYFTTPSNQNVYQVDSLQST

In the case of `O=C(O)c1ccccc1-c1ccc(/C=c2\sc3nc4cc(Br)cnc4n3c2=O)o1` [Compound 1], the “selectivity for HePTP over PTP-SL” value (PTP-SL) is reported as 5 fold, the “selectivity for HePTP over CD45” value (CD45) is reported as 15 fold and the “selectivity for HePTP over TCPTP” value (TCPTP) is reported as 5 fold. The “selectivity for HePTP over MKP-3” value (MKP-3) was 25 fold.
